## Antibody variant affinities, Ab-14 light chain, assay 1

The measurements come from Engelhart et al. 2022 (doi:10.1038/s41597-022-01779-4) through the FLAb antibody collection.

Target: peptide PDVDLGDISGINAS, taken from heptad repeat 2 (HR2) of SARS-CoV-2 spike.

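Phage display of a naive human antibody library on the peptide gave the parent. In library AAYL50, one, two or three CDR residues were substituted; doubles and triples were drawn at random. The assay is AlphaSeq: two haploid yeast populations carry antibody and antigen on their surface. The frequency of each diploid, read from paired DNA barcodes, reflects how well the two displayed proteins bind. Read counts were normalised to the haploid input and turned into Kd by a linear fit to BCL2-family pairs of known affinity, for each replicate. Mating was done three times.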

Parent scFv Ab-14: VH joined to VL by a (GGGGS)3 linker. Changes lie in the light chain CDRs alone.
VH: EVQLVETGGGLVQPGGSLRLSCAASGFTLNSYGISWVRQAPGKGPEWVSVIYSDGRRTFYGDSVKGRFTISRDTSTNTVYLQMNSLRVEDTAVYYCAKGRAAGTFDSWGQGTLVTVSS
VL: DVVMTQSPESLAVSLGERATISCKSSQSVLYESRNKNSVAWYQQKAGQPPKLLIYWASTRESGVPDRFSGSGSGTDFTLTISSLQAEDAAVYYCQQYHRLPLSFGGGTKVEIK

The parent's light chain CDRs are KSSQSVLYESRNKNSVA, WASTRES, QQYHRLPLS; each variant's own CDRs replace them letter for letter. Numbers give log10(Kd / nM), so 0 is 1 nM and 3 is 1 µM. Smaller is tighter. An entry "n.d." has no value in the source: the pair was not observed among the diploids in that replicate. This suggests poor binding but is not conclusive. Nonspecific signal, from three strains lacking the peptide, appeared in 18% of pairings of library AAYL50, centred on 4.19 (5% of these signals below 2.99); values are not corrected for it. Also given: how often the same scFv was detected with the empty control strains, with their mean in brackets.

| # | CDR-L1 | CDR-L2 | CDR-L3 | replicates, log10 nM | signal with controls |
|---|---|---|---|---|---|
| 1 | KSSQSNLYESRNKNSVA | WASTWES | QQYHHLPLS | n.d. / n.d. / n.d. | 1 of 9 (2.59) |
| 2 | KSSPSVLMESRNKNSVA | CASTRES | QQYHRLPLS | 0.48 / 0.81 / 0.74 | 3 of 9 (4.45) |
| 3 | KSSQSVDYESRNKNSVA | WDSTRES | DQYHRLPLS | 2.22 / 2.97 / n.d. | 1 of 9 (4.34) |
| 4 | KSSQSVLYERRNKNSVA | WASTREQ | QQYHYLPLS | 2.68 / 2.36 / n.d. | 1 of 9 (2.49) |
| 5 | KSSQSVLYESRNKNSVA | WASTRES | QVYHKLPLS | n.d. / 4.12 / n.d. | 1 of 9 (3.31) |
| 6 | KSSQSVLYESRNKNHVA | WASTRES | QQYHCLSLS | 1.57 / 1.95 / 2.46 | 0 of 9 |
| 7 | KSSQSVLYEYRNKNLVA | WASTRES | QQYHRLPLW | n.d. / n.d. / n.d. | 4 of 9 (5.60) |
| 8 | KSSQSVLYESRNKNSVA | WASTRES | QQTHRKQLS | 3.77 / n.d. / n.d. | 1 of 9 (4.00) |
| 9 | KSSQSVMYESRNKNSVA | WARTRES | QQYHRLPTS | 2.15 / 1.79 / 2.04 | 1 of 9 (4.79) |
| 10 | KSGMSSLYESRNKNSVA | WASTRES | QQYHRLPLS | 0.79 / 0.92 / 0.95 | 1 of 9 (4.24) |
| 11 | SSSQSVLYEARNKNSVA | WGSTRES | QQYHRLPLS | 0.39 / 0.70 / 0.38 | 0 of 9 |
| 12 | KSSQSELYESRNKNLVA | WASTRES | QQYHRPPLS | 3.89 / 4.71 / 5.55 | 3 of 9 (3.84) |
| 13 | SSSFGVLYESRNKNSVA | WASTRES | QQYHRLPLS | 1.47 / 1.49 / 1.68 | 1 of 9 (4.03) |
| 14 | KASQSVLYESRNKNSVN | WASTRES | QQYHRLPLS | n.d. / n.d. / n.d. | 0 of 9 |
| 15 | KSSQSVLYRSRNKNSVA | WASTREE | QQYHRLPLS | 1.53 / 1.51 / 1.28 | 2 of 9 (3.68) |
| 16 | KSSQSVLYESRNFNSVA | WASFREF | QQYHRLPLS | 1.57 / 1.67 / 1.86 | 4 of 9 (4.35) |
| 17 | KSSQSVLYESRNKPWVA | WASTRHS | QQYHRLPLS | n.d. / n.d. / n.d. | 4 of 9 (4.35) |
| 18 | KSSQSVLTMSDNKNSVA | WASTRES | QQYHRLPLS | 0.34 / 0.58 / 0.51 | 0 of 9 |
| 19 | KSSQTVLYESRNKNSVA | WGSTRES | QQYHRLRLS | n.d. / n.d. / n.d. | 0 of 9 |
| 20 | KSSQSVLYPSRNKKGVA | WASTRES | QQYHRLPLS | 3.92 / 3.11 / 2.43 | 1 of 9 (3.43) |
| 21 | VSSQSVLYESRNKNSYA | WASTRES | QQYHRLPLD | 5.69 / n.d. / n.d. | 1 of 9 (3.89) |
| 22 | KSSQSVLYESRNKNSVE | WASTRES | QNYQRLPLS | n.d. / n.d. / n.d. | 4 of 9 (3.78) |
| 23 | NSSQSVLYESRNKNSVA | WASTREF | QQYHRMPLS | 3.97 / 3.56 / 4.24 | 6 of 9 (4.60) |
| 24 | KSSQSVLYESRRKNSVN | WASTRES | QQYHRLCLS | n.d. / n.d. / n.d. | 1 of 9 (3.88) |
| 25 | KSSQSVLYESRNKVSVA | WASTRES | YQYHRYPLS | n.d. / n.d. / n.d. | 0 of 9 |
| 26 | KVSPSVLYESRNFNSVA | WASTRES | QQYHRLPLS | -0.17 / 0.14 / 0.03 | 1 of 9 (4.29) |
| 27 | KSSQSVLYESRSKNSVA | WASTRES | TQYHRLPSS | 0.86 / 1.19 / 1.23 | 0 of 9 |
| 28 | KSSNSVLYESRNKNAVA | WASTRES | QQYHRSPLS | 2.35 / n.d. / n.d. | 0 of 9 |
| 29 | KSSQVVLYESRNKNSPA | WMSTRES | QQYHRLPLS | 0.88 / 1.41 / 0.91 | 0 of 9 |
| 30 | KSSQSVLYESRYKNSVA | WASTRES | QQNHRLPLS | 3.78 / n.d. / n.d. | 0 of 9 |
| 31 | KSSQSVLYESRKKNYVA | WASTRES | QQAHRLPLS | n.d. / n.d. / n.d. | 0 of 9 |
| 32 | KSSYSVLYESRNKNSVA | WASTRES | QQYHYLLLS | 0.91 / 1.01 / 0.71 | 0 of 9 |
| 33 | KSSQMVLYESSNKNSVA | PASTRES | QQYHRLPLS | n.d. / 5.41 / 4.27 | 3 of 9 (3.76) |

3 of these entries, quoted again:

CDR-L1,CDR-L2,CDR-L3,"replicates, log10 nM",signal with controls
KSSQVVLYESRNKNSPA,WMSTRES,QQYHRLPLS,0.88 / 1.41 / 0.91,0 of 9
KSGMSSLYESRNKNSVA,WASTRES,QQYHRLPLS,0.79 / 0.92 / 0.95,1 of 9 (4.24)
KSSQSNLYESRNKNSVA,WASTWES,QQYHHLPLS,n.d. / n.d. / n.d.,1 of 9 (2.59)